# Data reported in patent publication US6153740A, “cDNA encoding nucleoside transporter” (University of Alberta, priority 1997, dated 2000).
# Columns and labels:
# CNT1 [1] = biological target: T1, CNT1 (Rattus norvegicus, UniProt Q62674); experiment: inhibition of CNT1-mediated nucleoside (uridine, AZT, ddC) transport in Xenopus oocytes; format: cell-based; settings: adenosine, cytidine, uridine>>guanosine, inosine
# T1 sequence (Q62674 1-648): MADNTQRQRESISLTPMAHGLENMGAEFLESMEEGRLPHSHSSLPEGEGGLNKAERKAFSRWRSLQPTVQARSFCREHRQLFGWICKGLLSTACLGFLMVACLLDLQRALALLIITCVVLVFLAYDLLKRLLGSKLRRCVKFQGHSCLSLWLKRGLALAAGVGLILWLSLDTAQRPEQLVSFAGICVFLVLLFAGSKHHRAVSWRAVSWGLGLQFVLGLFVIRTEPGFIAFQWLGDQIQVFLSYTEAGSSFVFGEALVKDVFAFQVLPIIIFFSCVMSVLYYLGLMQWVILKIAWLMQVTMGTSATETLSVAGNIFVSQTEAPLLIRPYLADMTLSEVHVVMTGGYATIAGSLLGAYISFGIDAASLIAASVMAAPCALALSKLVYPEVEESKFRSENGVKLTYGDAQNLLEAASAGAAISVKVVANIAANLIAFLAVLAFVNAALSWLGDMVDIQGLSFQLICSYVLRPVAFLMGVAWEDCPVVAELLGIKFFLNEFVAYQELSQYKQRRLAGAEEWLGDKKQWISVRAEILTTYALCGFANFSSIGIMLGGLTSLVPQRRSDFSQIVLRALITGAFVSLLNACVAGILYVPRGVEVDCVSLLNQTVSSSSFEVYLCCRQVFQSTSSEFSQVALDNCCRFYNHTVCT
# Procedure: (§1) Oocytes were injected with water or RNA transcribed in vitro from the nucleoside transporter cDNA (pQQH1). […] For panels c and d, the permeant concentration was 10 μM and competing nonradioactive nucleosides were present at a concentration of 1 mM.
# (§2) Remaining template was removed by digestion with RQ1 DNase. Oocytes were treated with collagenase to remove follicular layers (Huang et al, 1993) and injected with 10 ng of pQQH1 cRNA or water. […] At the end of the incubation, extracellular label was removed by six rapid ice-cold washes in the appropriate transport buffer. Individual oocytes were dissolved in 5% SDS for quantitation of oocyte-associated ^3 H by liquid scintillation counting (LS 6000 IC, Beckman).
# CNT1 [2] = biological target: T1, CNT1; settings: xenopus oocytes, 0.5 h, 10 µM
# Procedure: as §1
# Oocytes injected with water or in vitro transcribed RNA from pQQH1 were incubated with radiolabeled permanent (10 μM) for 30 min (open columns) or 1 h (hatched columns) at 20° C. Each value represents the mean ±S. E. of 8-10 ooctyes.
# as §2
smiles,measurement,setting,value
O=c1ccn([C@@H]2O[C@H](CO)[C@@H](O)[C@H]2O)c(=O)[nH]1 [uridine],selective inhibition of uridine and thymidine fluxes (rCNT1),CNT1 [1],selective inhibition
same,expressed: basal flux ratio,CNT1 [2],"> 20,000"
